Results reported in patent US12173004B2, “Pharmaceutical compositions comprising heterocycle fused gamma carboline prodrugs” (INTRA-CELLULAR THERAPIES, INC., priority 2017, dated 2024).

Test system: Male CD-1 mice
Settings: 10 mg/kg 30 min before test; naloxone 3 mg/kg i.p. pre-treatment

O=C1CN2c3c(cccc3[C@@H]3CN(CCCOc4ccc(F)cc4)CC[C@@H]32)N1 [Example 2, (6bR,10aS)-8-(3-(4-fluorophenoxy)propyl)-6b,7,8,9,10,10a-hexahydro-1H-pyrido[3′,4′:4,5]pyrrolo[1,2,3-de]quinoxalin-2(3H)-one]
mean latency: 2.1 s
